Counter-ions that a name gives are not always drawn.
Conditions: rabbit, in vivo
From the text: Sampling was done from the anterior chamber for the first five animals after 1 hr, 3 hr, 6 hr, 12 hr, and 24 hr, and from both the anterior chamber and posterior segment of the remaining five animals after 1 hr, 3 hr, 6 hr, 24 hr, and 48 hr. One animal was used for each time point.

CC(C)(C)NC[C@H](O)COc1nsnc1N1CCOCC1 [Timolol Maleate, (−)-1-(tert-butylamino)-3-[(4-morpholino-1,2,5-thiadiazo-3-yl)oxy]-2-propanol maleate, (1:1) salt]
level at the 6 hour time point relative to that at one hour time point: about 0.13%

From patent US8715709B2, “Sustained release intraocular implants and methods for treating ocular neuropathies” (Allergan, Inc., priority 2004, dated 2014)
